Test results taken from ChEMBL document CHEMBL3714717, “Family of PFKFB3 inhibitors with anti-neoplastic activities” (2013).

Amino acid sequences for entries named in this document (tags omitted). A change or cut given only in a name is not applied to a line headed by its entry.
UniProt Q16875: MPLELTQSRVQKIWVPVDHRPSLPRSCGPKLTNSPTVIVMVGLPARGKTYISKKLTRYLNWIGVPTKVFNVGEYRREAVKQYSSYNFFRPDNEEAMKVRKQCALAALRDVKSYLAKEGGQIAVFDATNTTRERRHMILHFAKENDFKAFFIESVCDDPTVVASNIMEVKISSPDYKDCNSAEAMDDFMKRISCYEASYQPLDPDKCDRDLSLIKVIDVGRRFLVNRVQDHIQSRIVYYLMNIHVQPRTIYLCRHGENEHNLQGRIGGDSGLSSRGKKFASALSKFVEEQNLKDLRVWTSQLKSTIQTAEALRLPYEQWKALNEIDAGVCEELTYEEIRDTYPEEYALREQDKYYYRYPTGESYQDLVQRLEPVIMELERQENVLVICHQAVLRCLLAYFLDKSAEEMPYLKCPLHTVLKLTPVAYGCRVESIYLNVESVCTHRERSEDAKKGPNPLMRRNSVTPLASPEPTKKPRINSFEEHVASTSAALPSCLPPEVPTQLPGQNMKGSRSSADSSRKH

Molecular target: 6-phosphofructo-2-kinase/fructose-2,6-bisphosphatase 3 (Homo sapiens, UniProt Q16875)
Test: Mixed type inhibition of human PFKFB3 expressed in Escherichia coli BL21 (DE3) assessed as reduction in NADH consumption in presence of high levels of fructose-6-phosphate incubated for 15 mins by spectrophotometry based pyruvate kinase and LDH enzyme coupled kinetic assay

O=C(/C=C/c1cccnc1)c1ccncc1
inhibition: inactive

Activity calls are given as the source filed them. No cut-off for these calls is given here.
